The subject of assay [1] is Acinetobacter baumannii. Briefly: Antibacterial activity against Acinetobacter baumannii AB0057 after 1 hr. The class given is functional, organism-based.
Assay [2] has as its system Acinetobacter baumannii. Nature of the assay: Antibacterial activity against Acinetobacter baumannii AB0057 at up to 4 ug/ml. The class given is functional, organism-based.
For assay [3], the system named is Acinetobacter baumannii. Briefly: Antibacterial activity against Acinetobacter baumannii ATCC 17978 at up to 4 ug/ml after 1 hr. The class given is functional.
The test system of assay [4] is Acinetobacter baumannii. Briefly: Antibacterial activity against Acinetobacter baumannii AB0057 assessed as bacterial survival at 1.4 ug/ml after 1 hr. The class given is functional, organism-based.
Assay [5] concerns Acinetobacter baumannii. Nature of the assay: Antibacterial activity against Acinetobacter baumannii AB0057 assessed as bacterial population at 1.4 ug/ml. The class given is functional, organism-based.
For assay [6], the system named is Acinetobacter baumannii. Nature of the assay: Antibacterial activity against Acinetobacter baumannii AB0057 assessed as bacterial survival at pH 5.5 after 1 hr. The class given is functional, organism-based.
Assay [7] has as its system Acinetobacter baumannii. Nature of the assay: Antibacterial activity against Acinetobacter baumannii AB0057 assessed as bacterial survival at pH 7.7 after 1 hr. The class given is functional, organism-based.
The test system of assay [8] is Acinetobacter baumannii. Nature of the assay: Antibacterial activity against Acinetobacter baumannii ATCC 17978 assessed as bacterial survival at pH 5.5 after 1 hr. The class given is functional.
Assay [9] deals with Acinetobacter baumannii. Nature of the assay: Antibacterial activity against Acinetobacter baumannii ATCC 17978 assessed as bacterial survival at pH 7.7 after 1 hr. The class given is functional.
The subject of assay [10] is Acinetobacter baumannii. Briefly: Antibacterial activity against Acinetobacter baumannii AB0057 assessed as bacterial survival after 1 hr in absence of ferric chloride. The class given is functional, organism-based.
Assay [11] concerns Acinetobacter baumannii. Briefly: Antibacterial activity against Acinetobacter baumannii AB0057 assessed as bacterial survival after 1 hr in presence of ferric chloride. The class given is functional, organism-based.
Assay [12] relates to Acinetobacter baumannii. Briefly: Antibacterial activity against Acinetobacter baumannii ATCC 17978 assessed as bacterial survival after 1 hr in absence of ferric chloride. The class given is functional.
Assay [13] has as its system Acinetobacter baumannii. Nature of the assay: Antibacterial activity against Acinetobacter baumannii ATCC 17978 assessed as bacterial survival after 1 hr in presence of ferric chloride. The class given is functional.

Calls of active or inactive are those of the source. The rule behind the calls is not given here.

Take COLISTIN SULFATE: the Activity entry in the assay with Acinetobacter baumannii [1] was “Dose-dependent effect”; in the assay on Acinetobacter baumannii [2], “tde”; in the assay on Acinetobacter baumannii [4], 1%; with Acinetobacter baumannii [5], less than 1e-05%. Moreover, in the assay with Acinetobacter baumannii [3], the outcome was Active. The Survival was 70% in the assay on Acinetobacter baumannii [6]; less than 1% in the assay on Acinetobacter baumannii [7]; 75% in the assay on Acinetobacter baumannii [8]; less than 1% in the assay on Acinetobacter baumannii [9]; 1.6% in the assay on Acinetobacter baumannii [10]; 16% in the assay with Acinetobacter baumannii [11]. The Survival in the assay on Acinetobacter baumannii [12] turned out to be 0.2%; in the assay on Acinetobacter baumannii [13], 56%.

Values taken from ChEMBL document CHEMBL1687735, “Resistance to colistin in Acinetobacter baumannii associated with mutations in the PmrAB two-component system” (Antimicrob Agents Chemother, 2009).
